scFv variants of Ab-91 (heavy chain) against a SARS-CoV-2 spike peptide

All variants were tested on one target, the spike HR2 peptide PDVDLGDISGINAS (SARS-CoV-2).

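The parent was found by panning a naive human phage display library on the peptide. AAYL51 was designed without a model: most single CDR substitutions and a random sample of double and triple ones. Affinity was read by AlphaSeq, a pooled yeast mating assay with surface-displayed partners. After mating in shaken culture at 30 °C for 16 h, diploids were selected and their barcode pairs sequenced. A regression on co-assayed BCL2-family reference pairs converts the normalised counts of each replicate to an apparent Kd. Each pool was mated in three replicate cultures.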

The variants keep the light chain, the linker and the frameworks of Ab-91 (scFv order VL, a 15-residue (Gly4Ser)3 linker, VH).
VL: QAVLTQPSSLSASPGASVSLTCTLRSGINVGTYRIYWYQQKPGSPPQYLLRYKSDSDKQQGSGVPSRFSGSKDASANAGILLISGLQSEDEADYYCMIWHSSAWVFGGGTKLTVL
VH: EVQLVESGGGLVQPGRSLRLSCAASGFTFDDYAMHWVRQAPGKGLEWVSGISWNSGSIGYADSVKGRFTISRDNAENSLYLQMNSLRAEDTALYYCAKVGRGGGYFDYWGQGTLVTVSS

Each variant is given by its three heavy chain CDRs, as the data file delimits them; those of the parent are GFTFDDYAMH, GISWNSGSIGYADSVK, VGRGGGYFDY.
Scale: log10 of Kd in nM, estimated from mating counts; low values are strong binders.
A mean of the replicates is given; it leaves out those without a signal.
Where no diploid with the target was found in that replicate, the entry reads "nd": below detection, most likely a poor binder, though not proof of it.

The variant GFTFDDYAMH | GISWNSGSIGYADSDK | VGRKGGRFDY gave 6.44, nd, nd (controls 3 of 9).
The variant GFTFDDYAMH | GISWNSGSIGYADHVR | VGRGGYYFDY gave 1.87, 1.86, 1.85 (mean 1.86; controls 5 of 9).
The variant GFTFDDYAMH | GHSMNSQSIGYADSVK | VGRGGGYFDY gave 3.55, 3.69, nd (mean 3.62; controls 2 of 9).
The variant GFTFDDYAMH | GISWGSGSIGYAASVK | VGRGGGYFPY gave 6.01, 4.94, nd (mean 5.47; controls 4 of 9).
The variant GRTIDDYAMH | GISWNSGSIGYADSVK | VGRGGGYFDY gave 2.86, 3.39, 2.76 (mean 3.00; controls 1 of 9).
The variant GFTFDDYAMH | KISWNSGGIGYAQSVK | VGRGGGYFDY gave nd, nd, nd (controls 0 of 9).
The variant GFTFCDDAMH | GISWNSGSIGYADSVK | VGRGGGNFDY gave 4.98, nd, 5.58 (mean 5.28; controls 5 of 9).
The variant GFTFDDYAMH | GISWNSGSIGYEDSVS | VGRGGGYFDY gave 3.31, 2.90, 3.35 (mean 3.19; controls 0 of 9).
The variant GFGFDDYADH | GISWNSGSIGYAPSVK | VGRGGGYFDY gave 4.70, nd, 5.60 (mean 5.15; controls 3 of 9).
The variant GFTFDDYNMH | GISFNSGSIGYADHVK | VGRGGGYFDY gave nd, 5.81, nd (controls 3 of 9).
The variant GFTFDDYAMH | GISWNSGSIGYADSVN | VGRGGGQIDY gave nd, 2.79, nd (controls 0 of 9).
The variant GHTFDDYAMH | GISWNSGCIGYADSVK | VGRGGGYADY gave 3.31, 4.38, nd (mean 3.84; controls 2 of 9).
The variant GFTFDLYAMH | GISWNSGRIGHADSVK | VGRGGGYFDY gave nd, nd, nd (controls 0 of 9).
The variant GFTFEDYAMH | GISWNSGSIGYSDSVK | VGRGGGYFDY gave 0.93, 0.87, 0.35 (mean 0.71; controls 4 of 9).
The variant GFTITDYAMH | GISWNSGSIGYADSVK | VGRGQGYFDY gave nd, 3.77, 2.62 (mean 3.20; controls 2 of 9).
The variant GFTFDDYAMH | GISWNSGSIGYQDSVK | KGRGGGYFDN gave nd, nd, nd (controls 4 of 9).
The variant GFWFDDYAMH | GIMWNSCSIGYADSVK | VGRGGGYFDY gave 4.51, 4.23, nd (mean 4.37; controls 3 of 9).
The variant QFTFDHYAMH | GISWNSGSIGYADSGK | VGRGGGYFDY gave 4.58, 6.51, 4.56 (mean 5.22; controls 8 of 9).
The variant GFTFDDYAMH | GISWDSGSIGYAMSVK | VGRGGGYFDY gave 1.92, 1.30, 1.62 (mean 1.61; controls 0 of 9).
The variant GKTFDDYAMR | GISWNSGSIGAADSVK | VGRGGGYFDY gave nd, nd, nd (controls 3 of 9).
The variant GFTFDQYSMH | GISWMSGSIGYADSVK | VGRGGGYFDY gave 2.74, 2.76, 2.32 (mean 2.61; controls 0 of 9).
The variant GFTFDDYFMH | GISWNLGSIGYADSVK | VGRHGGYFDY gave 4.43, nd, nd (controls 2 of 9).
The variant GFTFGDYAMH | GISWNSGPEGYADSVK | VGRGGGYFDY gave 3.74, 4.34, 3.01 (mean 3.70; controls 2 of 9).
The variant GFTFDDYAMH | GISWNSGSIGYADYVK | VSRGGGHFDY gave 1.18, 1.21, 0.91 (mean 1.10; controls 3 of 9).
The variant GFTFYDYADH | GISWNWGSIGYADSVK | VGRGGGYFDY gave 4.26, nd, nd (controls 0 of 9).
The variant GFTFDDWAMY | RISWNSGSIGYADSVK | VGRGGGYFDY gave nd, 4.50, nd (controls 2 of 9).
The variant GFTFDDYAMH | GISWNSGSIGYADSVK | VGRGGGGFDY gave 1.05, 1.12, 0.47 (mean 0.88; controls 4 of 9).
The variant GFTFDDSAMH | GISWWSGKIGYADSVK | VGRGGGYFDY gave nd, 3.80, nd (controls 3 of 9).
The variant GFTFDDYAMH | GISWNSGSIGHADSEK | VGRGGGYFLY gave nd, nd, nd (controls 1 of 9).
The variant GFHFDDYAMH | GISWLSGSIGYADSVK | VGRGGKYFDY gave 3.43, 3.60, 3.67 (mean 3.56; controls 1 of 9).
The variant GFTFDDYAMH | GNSWNSGSIGYADWVK | VGRGGGYFDY gave nd, nd, nd (controls 1 of 9).
The variant GFTFDDYAMH | WISWNVGSIGYADSVK | VGRFGGYFDY gave nd, nd, nd (controls 0 of 9).
The variant GLTFDDYAMH | GASWNSGSIGYADGVK | VGRGGGYFDY gave nd, nd, nd (controls 4 of 9).
The variant GFTFDDYAMH | GISWNLGSIGNADSVK | VGRGGGYFDK gave 5.42, nd, nd (controls 6 of 9).
The variant GFTFDDYAMV | GISWNSGSIGYADYVK | VGRGGGWFDY gave nd, nd, nd (controls 2 of 9).
The variant GFTFNDYAMH | GISWNSGSIGYADSVK | VERGGGYFDY gave nd, nd, nd (controls 0 of 9).
The variant GFTFDDYAMD | GISWNSGSIGYADSVK | VGYSGGYFDY gave 6.31, 4.89, 4.84 (mean 5.35; controls 8 of 9).
The variant GFTFDDYAMH | GISWNSGSIGYLFSVK | VRRGGGYFDY gave nd, nd, nd (controls 0 of 9).
The variant GFTFDDYAMH | GISWNSGSQGKADSVK | VGRGGGYCDY gave nd, nd, nd (controls 3 of 9).
The variant GFTFDAYCMH | GISWNSGSIGYADSVK | VGRGGGYFDQ gave nd, nd, 4.26 (controls 3 of 9).

4 of these entries, quoted again:

CDR-H1	CDR-H2	CDR-H3	log10 Kd, replicates	log10 Kd (nM), mean	signal with controls
GFTFDDYAMH	GISWNLGSIGNADSVK	VGRGGGYFDK	5.42, nd, nd	5.42	6/9
GFTFNDYAMH	GISWNSGSIGYADSVK	VERGGGYFDY	nd, nd, nd	nd	0/9
GFTFDDYFMH	GISWNLGSIGYADSVK	VGRHGGYFDY	4.43, nd, nd	4.43	2/9
GFTFDDYAMH	WISWNVGSIGYADSVK	VGRFGGYFDY	nd, nd, nd	nd	0/9

Three control strains display no target. For library AAYL51, 21% of the pairings with them gave a signal, with a median of 4.54 and one signal in twenty below 3.26, so weak values seen in few replicates may be background. The control count says in how many pairings with the empty strains this scFv gave a signal.
Parent in this assay: reference entry 1.86, copy in this library 0.88.

The measurements come from Engelhart et al. 2022 (doi:10.1038/s41597-022-01779-4) through the FLAb antibody collection.